Reference: patent publication US11440923B2, “Substituted macrocyclic indole derivatives” (Bayer Aktiengesellschaft, priority 2017, dated 2022)

Key:
[1] = test system: AMO-1 cells; assay: Antiproliferation assay AMO-1 (Assay 7); type: cell-based; settings: read-out: Antiproli AMO-1 IC50 median; 72 h, CellTiter-Glo
[2] = test system: MV-4-11 cells; assay: Antiproliferation assay MV-4-11 (Assay 7); settings: read-out: Antiproli MV-4-11 IC50 median; 72 h, CellTiter-Glo
[3] = target: MCL-1 (Homo sapiens (Human), UniProt Q07820, K194A/K197A/R201A); assay: Protein-compound interaction assay (SPR assay, Assay 9); type: binding
[4] = test system: A2780 cells; assay: Antiproliferation assay A2780 (Assay 7); settings: read-out: Antiproli A2780 IC50 median; 72 h, CellTiter-Glo
[5] = test system: HMC-1-8 cells; assay: Antiproliferation assay HMC-1-8 (Assay 7); type: cell-based; settings: read-out: Antiproli HMC-1-8 IC50 median; 72 h, CellTiter-Glo

With `Cc1c2c(nn1C)C(CCN1CCOCC1)OCCCCn1c(C(=O)O)c(CCCOc3cccc4ccccc34)c3ccc(F)c-2c31` (stereo not shown) the IC50 [1] was 221 nM, the IC50 [2] was 244 nM and the “koff (geometric mean)” value ([3]; 25° C.) was 2.5 E−2 1/s. For the same compound, the “kon (geometric mean)” value ([3]; 25° C.) was 2.9 E7 1/M 1/s, the Kd ([3]; read-out: KD (geometric mean), 25° C.) was 0.84 nM and the IC50 [4] was 2840 nM. The IC50 [5] was 1430 nM.
